These results are taken from US6642227B2, “Inhibitors of c-Jun N-terminal kinases (JNK) and other protein kinases” (Vertex Pharmaceuticals Incorporated, priority 2001, dated 2003).

By UniProt entry, the sequences of proteins in these tests, tags left out.
UniProt P12931, whole entry: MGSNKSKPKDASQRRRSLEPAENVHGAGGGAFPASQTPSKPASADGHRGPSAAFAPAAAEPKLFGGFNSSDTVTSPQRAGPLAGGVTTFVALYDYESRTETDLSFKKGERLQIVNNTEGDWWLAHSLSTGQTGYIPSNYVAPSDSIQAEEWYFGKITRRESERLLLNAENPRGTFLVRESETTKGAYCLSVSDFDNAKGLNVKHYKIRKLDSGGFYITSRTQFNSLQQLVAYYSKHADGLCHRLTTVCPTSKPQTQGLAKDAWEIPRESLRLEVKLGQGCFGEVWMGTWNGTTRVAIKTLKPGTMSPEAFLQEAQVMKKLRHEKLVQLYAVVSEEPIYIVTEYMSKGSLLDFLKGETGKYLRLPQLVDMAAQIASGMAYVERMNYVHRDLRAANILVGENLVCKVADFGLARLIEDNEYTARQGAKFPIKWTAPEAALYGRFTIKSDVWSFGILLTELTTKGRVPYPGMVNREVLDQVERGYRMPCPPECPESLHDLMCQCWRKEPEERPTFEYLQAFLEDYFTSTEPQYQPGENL
UniProt P06239, whole entry: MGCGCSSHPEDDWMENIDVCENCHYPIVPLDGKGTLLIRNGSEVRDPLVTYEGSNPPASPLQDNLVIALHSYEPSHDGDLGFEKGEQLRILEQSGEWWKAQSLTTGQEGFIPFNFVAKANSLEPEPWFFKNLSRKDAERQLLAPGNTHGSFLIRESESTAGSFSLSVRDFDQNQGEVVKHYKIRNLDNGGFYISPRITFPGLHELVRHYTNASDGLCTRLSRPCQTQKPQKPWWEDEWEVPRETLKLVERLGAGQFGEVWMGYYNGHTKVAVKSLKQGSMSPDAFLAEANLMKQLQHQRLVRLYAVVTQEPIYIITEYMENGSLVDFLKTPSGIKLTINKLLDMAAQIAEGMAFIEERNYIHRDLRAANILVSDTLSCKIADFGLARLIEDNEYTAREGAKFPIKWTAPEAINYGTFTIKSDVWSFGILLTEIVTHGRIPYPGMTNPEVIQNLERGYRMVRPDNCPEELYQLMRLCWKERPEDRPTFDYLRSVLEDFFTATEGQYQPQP

The term Ki denotes the dissociation constant of the complex between target and ligand, obtained from inhibition or displacement.

In assay [1] the target is human Src kinase (Homo sapiens, UniProt P12931). Nature of the assay: Src inhibition assay (A: radioactivity-based or B: spectrophotometric coupled-enzyme assay). As to conditions: read-out: Src Activity (Ki class A-C); assay A or B not specified. Here is the method: The compounds were evaluated as inhibitors of human Src kinase using either a radioactivity-based assay or spectrophotometric assay.
The compounds were assayed as inhibitors of full length recombinant human Src kinase (from Upstate Biotechnology, cat. no. 14-117) expressed and purified from baculo viral cells. Src kinase activity was monitored by following the incorporation of ^33p from ATP into the tyrosine of a random poly Glu-Tyr polymer substrate of composition, Glu:Tyr=4:1 (Sigma, cat. no. P-0275). The following were the final concentrations of the assay components: 0.05 M HEPES, pH 7.6, 10 mM MgCl2, 2 mM DTT, 0.25 mg/ml BSA, 10 μM ATP (1-2 uCi ^33P-ATP per reaction), 5 mg/ml poly Glu-Tyr, and 1-2 units of recombinant human Src kinase. In a typical assay, all the reaction components with the exception of ATP were pre-mixed and aliquoted into assay plate wells.
Inhibitors dissolved in DMSO were added to the wells to give a final DMSO concentration of 2.5%. The assay plate was incubated at 30° C. for 10 min before initiating the reaction with ^33P-ATP. After 20 min of reaction, the reactions were quenched with 150 μl of 10% trichloroacetic acid (TCA) containing 20 mM Na3PO4. The quenched samples were then transferred to a 96-well filter plate (Whatman, UNI-Filter GF/F Glass Fiber Filter, cat no. 7700-3310) installed on a filter plate vacuum manifold. Filter plates were washed four times with 10% TCA containing 20 mM Na3PO4 and then 4 times with methanol. 200 μl of scintillation fluid was then added to each well. The plates were sealed and the amount of radioactivity associated with the filters was quantified on a TopCount scintillation counter. The radioactivity incorporated was plotted as a function of the inhibitor concentration. The data was fitted to a competitive inhibition kinetics model to get the Ki for the compound.
The ADP produced from ATP by the human recombinant Src kinase-catalyzed phosphorylation of poly Glu-Tyr substrate was quanitified using a coupled enzyme assay (Fox et al (1998) Protein Sci 7, 2249). In this assay one molecule of NADH is oxidised to NAD for every molecule of ADP produced in the kinase reaction. The disappearance of NADH can be conveniently followed at 340 nm.
The following were the final concentrations of the assay components: 0.025 M HEPES, pH 7.6, 10 mM MgCl2, 2 mM DTT, 0.25 mg/ml poly Glu-Tyr, and 25 nM of recombinant human Src kinase. Final concentrations of the components of the coupled enzyme system were 2.5 mM phosphoenolpyruvate, 200 μM NADH, 30 μg/ml pyruvate kinase and 10 μg/ml lactate dehydrogenase.
In a typical assay, all the reaction components with the exception of ATP were pre-mixed and aliquoted into assay plate wells. Inhibitors dissolved in DMSO were added to the wells to give a final DMSO concentration of 2.5%. The assay plate was incubated at 30 C. for 10 min before initiating the reaction with 100 μM ATP. The absorbance change at 340 nm with time, the rate of the reaction, was monitored on a molecular devices plate reader. The data of rate as a function of the inhibitor concentration was fitted to compettive inhibition kinetics model to get the Ki for the compound.

In assay [2] the target is human Lck kinase (UniProt P06239). Nature of the assay: Lck inhibition assay (A: radioactivity-based or B: spectrophotometric coupled-enzyme assay). As to conditions: read-out: Lck Activity (Ki rating). Here is the method:
The compounds were evaluated as inhibitors of human Lck kinase using either a radioactivity-based assay or spectrophotometric assay.
The compounds were assayed as inhibitors of full length bovine thymus Lck kinase (from Upstate Biotechnology, cat. no. 14-106) expressed and purified from baculo viral cells. Lck kinase activity was monitored by following the incorporation of ^33p from ATP into the tyrosine of a random poly Glu-Tyr polymer substrate of composition, Glu:Tyr=4:1 (Sigma, cat. no. P-0275). The following were the final concentrations of the assay components: 0.025 M HEPES, pH 7.6, 10 mM MgCl2, 2 mM DTT, 0.25 mg/ml BSA, 10 μM ATP (1-2 μCi ^33P-ATP per reaction), 5 mg/ml poly Glu-Tyr, and 1-2 units of recombinant human […] kinase. In a typical assay, all the reaction components with the exception of ATP were pre-mixed and aliquoted into assay plate wells. Inhibitors dissolved in DMSO were added to the wells to give a final DMSO concentration of 2.5%. The assay plate was incubated at 30 C. for 10 min before initiating the reaction with ^33P-ATP. After 20 min of reaction, the reactions were quenched with 150 μl of 10% trichloroacetic acid (TCA) containing 20 mM Na3PO4. The quenched samples were then transferred to a 96-well filter plate (Whatman, UNI-Filter GF/F Glass Fiber Filter, cat no. 7700-3310) installed on a filter plate vacuum manifold. Filter plates were washed four times with 10% TCA containing 20 mM Na3PO4 and then 4 times with methanol. 200 μl of scintillation fluid was then added to each well. The plates were sealed and the amount of radioactivity associated with the filters was quantified on a TopCount scintillation counter. The radioactivity incorporated was plotted as a function of the inhibitor concentration. The data was fitted to a competitive inhibition kinetics model to get the Ki for the compound.
The ADP produced from ATP by the human recombinant Lck kinase-catalyzed phosphorylation of poly Glu-Tyr substrate was quanitified using a coupled enzyme assay (Fox et al (1998) Protein Sci 7, 2249). In this assay one molecule of NADH is oxidised to NAD for every molecule of ADP produced in the kinase reaction. The disappearance of NADH can be conveniently followed at 340 nm.
The following were the final concentrations of the assay components: 0.025 M HEPES, pH 7.6, 10 mM MgCl2, 2 mM DTT, 5 mg/ml poly Glu-Tyr, and 50 nM of recombinant human Lck kinase. Final concentrations of the components of the coupled enzyme system were 2.5 mM phosphoenolpyruvate, 200 μM NADH, 30 μg/ml pyruvate kinase and 10 μg/ml lactate dehydrogenase.
In a typical assay, all the reaction components with the exception of ATP were pre-mixed and aliquoted into assay plate wells. Inhibitors dissolved in DMSO were added to the wells to give a final DMSO concentration of 2.5%. The assay plate was incubated at 30° C. for 10 min before initiating the reaction with 150 μM ATP. The absorbance change at 340 nm with time, the rate of the reaction, was monitored on a molecular devices plate reader. The data of rate as a function of the inhibitor concentration was fitted to competitive inhibition kinetics model to get the Ki for the compound.

Turning to `CSc1sc(-c2ccnc(Nc3cccc(O)c3)n2)c(-c2cccc(-c3ccc(C(C)C)cc3)c2)c1C#N` [IIa-87], the Ki in assay [1] was 100 to 1000 nM; in assay [2], less than 100 nM.
The corresponding values for `Cc1cnc(Nc2cccc([N+](=O)[O-])c2)nc1-c1sc(N(C)C)c(C#N)c1-c1cccc(Oc2ccccc2)c1` are less than 100 nM and less than 100 nM.
As for `Cc1cnc(Nc2cccc(O)c2)nc1-c1sc(N(C)C)c(C#N)c1-c1cccc(Oc2ccccc2)c1`, the Ki in assay [1] and in assay [2] was less than 100 nM each time.
As for `CSc1sc(-c2ccnc(Nc3cccc(OCc4ccccc4)c3)n2)c(-c2cccc(Br)c2)c1C#N`, the Ki in assay [1] and in assay [2] was less than 100 nM throughout.
As to `CSc1sc(-c2ccnc(Nc3cccc(O)c3)n2)c(-c2cccc(Br)c2)c1C#N`, the Ki in assay [1] and in assay [2] was less than 100 nM throughout.
Consider `CCS(=O)(=O)Nc1cccc(Nc2nccc(-c3sc(SC)c(C#N)c3-c3cccnc3)n2)c1`, for which the Ki in assay [1] and in assay [2] was less than 100 nM throughout.
Take `COc1cccc(-c2c(-c3ccnc(Nc4cccc(N)c4)n3)sc(SC)c2C#N)c1`: the Ki in assay [1] and in assay [2] was less than 100 nM throughout.
With `CSc1sc(-c2nc(Nc3cccc(OCc4ccccc4)c3)ncc2C)c(-c2ccccc2)c1C#N`, the Ki in assay [1] and in assay [2] was less than 100 nM throughout.
On to `CSc1sc(-c2nc(Nc3cccc(S(N)(=O)=O)c3)ncc2C)c(-c2ccccc2)c1C#N`, for which the Ki in assay [1] and in assay [2] was less than 100 nM each time.
Turning to `CSc1sc(-c2ccnc(Nc3cccc(O)c3)n2)c(-c2cccc(-c3cccc(N)c3)c2)c1C#N`, the Ki in assay [1] and in assay [2] was less than 100 nM in each case.
For the compound `CSc1sc(-c2ccnc(Nc3cccc(O)c3)n2)c(-c2cccc(-c3cccnc3)c2)c1C#N`, the Ki in assay [1] and in assay [2] was 100 to 1000 nM throughout.
For the compound `CCOc1cccc(-c2cccc(-c3c(-c4ccnc(Nc5cccc(O)c5)n4)sc(SC)c3C#N)c2)c1`, the Ki in assay [1] and in assay [2] was 100 to 1000 nM throughout.
As for `COc1cccc(-c2c(-c3ccnc(Nc4cccc([N+](=O)[O-])c4)n3)sc(SC)c2C#N)c1`, the Ki in assay [1] and in assay [2] was 100 to 1000 nM throughout.
Consider `CSc1sc(-c2nc(Nc3cccc(OCc4ccccc4)c3)ncc2C)c(-c2cccnc2)c1C#N`, for which the Ki in assay [1] and in assay [2] was less than 100 nM in each case.
In the case of `CSc1sc(-c2ccnc(Nc3cccc(NS(C)(=O)=O)c3)n2)c(-c2cccnc2)c1C#N`, the Ki in assay [1] and in assay [2] was 100 to 1000 nM in each case.
Consider `CSc1sc(-c2ccnc(Nc3cccc(O)c3)n2)c(-c2cccc(-c3ccc(F)c(Cl)c3)c2)c1C#N`, for which the Ki is 100 to 1000 nM in assay [1] and more than 1000 nM in assay [2].
In the case of `CSc1sc(-c2ccnc(Nc3cccc(O)c3)n2)c(-c2cccc(-c3cccc(O)c3)c2)c1C#N`, the Ki in assay [1] and in assay [2] was less than 100 nM throughout.
